Assay results: paper PMC3750051, “A New Class of Rhomboid Protease Inhibitors Discovered by Activity-Based Fluorescence Polarization” (PLoS ONE, 2013)

Tests used:
[1] = target: GlpG from E. coli (Escherichia coli, UniProt P09391); test: Gel-based labeling of rhomboid by fluorescent activity-based probes; format: biochemical; conditions: 1 µM probe, 45 nM GlpG WT or inactive S201A mutant, 30 min
[2] = system: mouse metabolic serine hydrolases; conditions: cited from earlier work

CCOP(=O)(F)CCCCCCCCCCNC(=O)c1ccc(-c2c3ccc(=[N+](C)C)cc-3oc3cc(N(C)C)ccc23)c(C(=O)[O-])c1 (centres unmarked)
activity-based labeling of GlpG by the probe [1]: labeled wild-type (WT) GlpG from E. coli, but not the inactive S201A mutant | fraction of mouse metabolic serine hydrolases that react with the probe [2]: 82%
